The values below come from PMC7145423, “Cooperative enzymatic control of N-acyl amino acids by PM20D1 and FAAH” (eLife, 2020).

Sequences of proteins named here, by UniProt entry; tags and fusion partners are left off.
UniProt O08914, whole entry: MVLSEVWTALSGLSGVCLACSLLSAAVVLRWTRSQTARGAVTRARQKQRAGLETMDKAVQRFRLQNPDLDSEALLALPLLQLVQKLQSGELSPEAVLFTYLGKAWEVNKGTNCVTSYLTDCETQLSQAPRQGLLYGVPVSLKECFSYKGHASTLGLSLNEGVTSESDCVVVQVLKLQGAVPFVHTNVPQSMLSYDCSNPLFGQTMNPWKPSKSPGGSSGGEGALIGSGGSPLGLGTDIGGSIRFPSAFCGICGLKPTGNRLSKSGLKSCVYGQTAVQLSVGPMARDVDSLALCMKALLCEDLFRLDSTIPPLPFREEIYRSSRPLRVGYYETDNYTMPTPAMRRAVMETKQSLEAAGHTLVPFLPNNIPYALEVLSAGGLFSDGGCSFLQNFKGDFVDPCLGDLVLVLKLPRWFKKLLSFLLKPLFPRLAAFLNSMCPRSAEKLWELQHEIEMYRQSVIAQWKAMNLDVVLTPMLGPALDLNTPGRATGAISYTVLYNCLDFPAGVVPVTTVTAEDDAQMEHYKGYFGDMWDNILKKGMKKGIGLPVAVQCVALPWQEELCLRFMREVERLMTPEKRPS

For the assay, the target named is FAAH (residual C20:4-Gly hydrolase of PM20D1-KO liver membranes) (Mus musculus, UniProt O08914). Put plainly: inhibition of C20:4-Gly hydrolysis, LC-MS of arachidonic acid. The conditions noted are these: 100 µM C20:4-Gly, PBS, 1 hr 37°C, 10 min pre-incubation, serine hydrolase inhibitor, covalent.

For `CCCCC/C=C\C/C=C\C/C=C\C/C=C\CCCCP(=O)(F)OC` (stereo not shown), the “% inhibition at 10 μM” value is given as “MAFP completely abolished the residual C20:4-Gly hydrolysis activity”.
